## Curated experimental data: water solubility values

Values as listed in the OPERA 2.9 repository of K. Mansouri.

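The OPERA project collected these measurements from public sources as training and test data for property models. One number stands for a compound and property, with no spread given. Method and conditions are not stated for these values. The measured form (salt, isomer or mixture) is not always the one drawn. Some entries may be limits or estimates that an upstream database listed as plain numbers.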

Water solubility is log10 of mol/L, nominally at 25 °C; higher is more soluble. Cells with "–" have no entry in this list.

structure (SMILES)	name	water solubility (log10 mol/L)
CNc1ccc(Nc2cccc(C)c2)c2c1C(=O)c1ccccc1C2=O	–	-7.233
CCCC[N+](CC)(CCCC)CCCCCC[N+](CC)(CCCC)CCCC.[OH-].[OH-]	–	-0.189
O=C1O[C@@H]([C@H](O)[C@H](O)CO)[C@@H](O)[C@H]1O	Heptono-1,4-lactone	0.393
S=C(SSCCCCCCSSC(=S)N(Cc1ccccc1)Cc1ccccc1)N(Cc1ccccc1)Cc1ccccc1	–	-7.142
CCc1nc(C(=O)O)c(C(=O)O)[nH]1	2-Ethyl-1H-imidazole-4,5-dicarboxylic acid	-2.834
C/C=C/c1ccc(OC)c(OC)c1	4-trans-Propenylveratrole	-2.778
CCC(C)c1cc(N=Nc2ccc([N+](=O)[O-])cc2)cc(C(C)CC)c1O (stereo not drawn)	–	-7.852
Nc1nc2ncncc2[nH]1	7H-purin-8-amine	-2.415
CCC(CC(CC)C(=O)O)C(=O)O (stereo not drawn)	2,4-Diethylglutaric Acid	-1.09
CCCC(O)CC[C@@H]1[C@@H](C)CCCC1(C)C (stereo in doubt)	–	-3.94
CC(C)c1ccc2cc(C(C)C)ccc2c1	2,6-Diisopropylnaphthalene	-4.29
N#Cc1ccc(C=Cc2ccc(C=Cc3cccc(C#N)c3)cc2)cc1	–	-8.124
C=CCOC(=O)CCC1CCCCC1	Prop-2-en-1-yl 3-cyclohexylpropanoate	-4.062
Cc1ccc(C(C)(C)C)c(O)c1	2-Tert-Butyl-5-methylphenol	-2.673
COCCCOc1cc(C(O)[C@@H](C[C@H](NC(=O)OC(C)(C)C)[C@@H]2C[C@@H](C(C)C)C(=O)O2)C(C)C)ccc1OC (stereo not given in full)	–	-3.732
C/C=N/NC(N)=O	(2E)-2-Ethylidenhydrazincarboxamid	-0.542
CCC(CC)(C(=O)NC)C(=O)NC	2,2-Diethyl-N1,N3-dimethylpropanediamide	0.031
COC(=O)CC1CCCCC1	Methylcyclohexylacetate	-2.717
C=CCSC(=O)n1c(N)c(-c2ccccc2C)c(=O)n1C(C)C	Fenpyrazamine	-4.21
C=CC1COC(CC(C)C)O1 (stereo not drawn)	2-Isobutyl-4-vinyl-1,3-dioxolane	-2.18
CCCCCCCCCCCCCCCCOC(=O)CCCCCCCCCCCCCCC	Palmityl palmitate	-8.755
CC1(C)O[C@@H]2C[C@H]3[C@@H]4C[C@H](F)C5=CC(=O)CC[C@]5(C)[C@H]4[C@@H](O)C[C@]3(C)[C@]2(C(=O)CO)O1	Flurandrenolide	-3.878
OC[C@@H]1CO[C@@](Cn2cncn2)(c2ccc(Cl)cc2Cl)O1 (relative stereo)	–	-2.906
O=c1c(Br)cc(Br)cc(Br)c1O	–	-3.59
CCOC(=O)c1ccc2sc3ccccc3c(=O)c2c1	Ethyl 9-oxo-9H-thioxanthene-2-carboxylate	-6.757
CCCCCCCCCCCC[N+](C)(C)[O-]	N,N-Dimethyldodecylamine-N-oxide	-0.082
COc1cc(Cl)c(Cl)c(Cl)c1O	4,5,6-Trichloroguaiacol	-4.04
Cc1c(-c2ccccc2)oc2c(C(=O)OCCN3CCCCC3)cccc2c1=O	Flavoxate	-4.405
COC(=O)c1ccc(N=Nc2ccc(N)cc2N)cc1	4-(2,4-Diaminophenylazo)benzoic acid methyl ester	-3.201
C.O=C(O)[C@H]1c2ccccc2[C@H](C(=O)O)c2ccccc21	–	-2.742
COC(=O)CCC(=O)CN	Methyl aminolevulinate	0.181
Clc1cc(Oc2c(Cl)cc(Cl)c(Cl)c2Cl)c(Cl)c(Cl)c1Cl	–	-10.1
CCOc1ncc(C)c2c1C(c1ccc(C#N)cc1OC)C(C(N)=O)=C(C)N2 (stereo not drawn)	–	-4.316
Nc1ccc(CCc2ccc(N)cc2)cc1	Benzenamine, 4,4'-(1,2-ethanediyl)bis-	-3.646
CCCCCCCCCCCC1=NCCN1CCO	1H-Imidazole-1-ethanol, 4,5-dihydro-2-undecyl-	-3.899
CCCCCCCCCC(=O)OCC(C)(C)COC(=O)CCCCCCCCC	Decanoic acid, 2,2-dimethyl-1,3-propanediol diester	-8.235
CCCCCCCN	Heptylamine	-1.85
CC(=O)Nc1cccc(F)c1	N-(3-Fluorophenyl)acetamide	-1.719
CNC(=O)Nc1ccccc1	N-Methyl-N'-phenylurea	-1.26
Cc1nn(-c2ccccc2)c(=O)[c-]1/N=N/c1cc([N+](=O)[O-])ccc1[O-].Cc1nn(-c2ccccc2)c(=O)[c-]1/N=N/c1cc([N+](=O)[O-])ccc1[O-].[Cr+3].[Na+]	–	-2.326
NS(=O)(=O)c1cc2c(s1)S(=O)(=O)CCC2	–	-2.679
CCOC(F)(C(F)(F)C(F)(F)C(F)(F)F)C(F)(C(F)(F)F)C(F)(F)F (stereo not drawn)	3-Ethoxyperfluoro(2-methylhexane)	-7.652
O=C(N/N=C/C=C/c1ccc([N+](=O)[O-])o1)c1ccc([N+](=O)[O-])o1	–	-4.341
CCc1nnc(NS(=O)(=O)c2ccc(N)cc2)s1	Sulfaethidole	-1.94

A selection of 5 entries from above:

structure (SMILES)	name	water solubility (log10 mol/L)
CCCCCCCCCCCC[N+](C)(C)[O-]	N,N-Dimethyldodecylamine-N-oxide	-0.082
C=CCSC(=O)n1c(N)c(-c2ccccc2C)c(=O)n1C(C)C	Fenpyrazamine	-4.21
C.O=C(O)[C@H]1c2ccccc2[C@H](C(=O)O)c2ccccc21	–	-2.742
Nc1ccc(CCc2ccc(N)cc2)cc1	Benzenamine, 4,4'-(1,2-ethanediyl)bis-	-3.646
CCCCCCCCCCCC1=NCCN1CCO	1H-Imidazole-1-ethanol, 4,5-dihydro-2-undecyl-	-3.899